Test system: patients suffering from moderate to severe RLS
Details: single doses as tablets containing 0.1 to 1.5 mg active substance, once a day
Description: The expression moderate to severe RLS is used when patients reach a points score of >15 on the international RLS scale. The scale runs from 0 (no RLS symptoms) to 40 (severest form of RLS). Thus, in moderate to severe RLS, the symptoms usually occur more than twice a week.

For `CCCNC1CCc2nc(N)sc2C1.Cl.Cl` (stereo not shown) [pramipexole, 2-amino-6-n-propylamino-4,5,6,7-tetrahydrobenzo-thiazole dihydrochloride], the tolerability was “well tolerated”.

Reference: patent publication US20080262053A1 (priority 2005, published 2008)
